Biological target: T1, amyloid (aggregated Aβ1-40) (Homo sapiens, UniProt P05067)
T1 construct: Aβ1-40 (Peptide Institute, INC.) was dissolved in phosphate buffer (pH 7.4); purchased Peptide Institute, INC
Assay: Measurement of affinity with amyloid: inhibition of [125I]3′-I-BTA-0 binding
Settings: [125I]3′-I-BTA-0 400 pmol/L, amyloid 1 μmol/L, 22° C., 3 hours
Protocol: Affinity of the present compounds with amyloid was examined by the following in vitro binding tests.
(1) Aβ1-40 (Peptide Institute, INC.) was dissolved in phosphate buffer (pH 7.4) and shaken at 37° C. for 62-72 hours, to obtain a 1 mg/mL suspension of aggregated Aβ (hereinafter referred to as amyloid suspension in this Example).
(3) According to the method described in a literature (Wang, Y., et al., J. Labeled Compounds Radiopharmaceut. 44, 5239 (2001)), [^125I]2-(3′-iodo-4′-aminophenyl)benzothiazole (hereinafter referred to as […]) was prepared from a labeling precursor 2-(4′-aminophenyl)benzothiazole, and dissolved in ethanol. […]
(7) The glass fiber filter used for the filtration of each sample solution was washed with a 0.1% bovine serum albumin-containing phosphate buffer (pH 7.4) (0.5 mL×5), and radioactivity of the glass fiber filter was measured with an autowell gamma system (manufactured by Aloka, Type: ARC-301B).
(8) Separately, a solution of containing 15 μmol/L of 6-Me-BTA-2, […] of [^125I]3′-I-BTA-0 and 1 μmol/L of Aβ1-40 were prepared and subjected to the same procedures as described above in (6) and (7) to measure a radioactivity level. The measured radioactivity level was defined as the background radioactivity level, and used in the calculation of the inhibition ratio (hereinafter referred to as BG). […]

Sequences of proteins named here, by UniProt entry; tags and fusion partners are left off. Residues count along the entry.
UniProt P05067, 672-711 limits assumed: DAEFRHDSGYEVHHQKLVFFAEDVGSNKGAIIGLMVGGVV

Q: Which IC50 does the source give for Cc1ccc2c(c1)sc(-c1ccc(N(C)C)cc1)[n+]2C [Thioflavin T, reference compound] here?
A: > 1 µM

— patent US20100267952A1, “USE OF NOVEL COMPOUND HAVING AFFINITY FOR AMYLOID, AND PROCESS FOR PRODUCTION OF THE SAME” (NIHON MEDI-PHYSICS CO., LTD., priority 2007, published 2010)
